Only a part is listed here, and it is no random draw. The source made the active and inactive calls.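 The calls were made as follows: active = primary screen active, with duplicate mean activation above negative control mean plus 3 SD (cut at about 11% in these data); inactive = the rest.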
Target: High affinity choline transporter 1 (Homo sapiens) (UniProt Q9GZV3)
Assay: CHT activators, confirmation, cell-based, membrane potential dye, duplicate (AID 504833)
Conditions: CHT-expressing cells, membrane potential dye fluorescence (FDSS); at 10 µM; stronger effect = higher value; % of choline EC20–EC90 response window; HEK293 expressing CHT LV-AA mutant; choline added at its EC20

Amino acid sequences for entries named in this document (tags omitted). A change or cut given only in a name is not applied to a line headed by its entry.
UniProt Q9GZV3: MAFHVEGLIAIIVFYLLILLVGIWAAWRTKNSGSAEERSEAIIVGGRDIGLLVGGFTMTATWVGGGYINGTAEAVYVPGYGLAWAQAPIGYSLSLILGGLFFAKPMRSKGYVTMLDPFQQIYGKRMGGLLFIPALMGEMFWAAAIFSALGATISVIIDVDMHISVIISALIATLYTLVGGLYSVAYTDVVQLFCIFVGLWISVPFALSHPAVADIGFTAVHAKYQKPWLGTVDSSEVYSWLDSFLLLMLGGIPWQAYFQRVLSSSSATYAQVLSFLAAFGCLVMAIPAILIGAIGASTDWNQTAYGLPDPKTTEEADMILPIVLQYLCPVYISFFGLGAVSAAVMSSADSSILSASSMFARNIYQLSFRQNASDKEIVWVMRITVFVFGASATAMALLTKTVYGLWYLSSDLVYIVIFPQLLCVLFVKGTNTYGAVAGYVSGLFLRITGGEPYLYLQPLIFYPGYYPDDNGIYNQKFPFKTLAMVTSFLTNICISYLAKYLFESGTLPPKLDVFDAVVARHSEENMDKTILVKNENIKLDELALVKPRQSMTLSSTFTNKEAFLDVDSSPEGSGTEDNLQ

SMILES | activation
CCC1=CC2Cc3nc4ccc(Cl)cc4c(N)c3C(C1)C2 (configuration not stated) | active: 42.8%
CC1CCC(C(C)C)C(OP(=O)(Nc2ccccn2)c2ccccc2)C1 (configuration not stated) | active: 30.2%

— PubChem BioAssay AID504833 (Johns Hopkins Ion Channel Center, 2011)
